# Legend:
# Amino acid sequences for entries named in this document (tags omitted). Residues count along the entry.
# UniProt P08684, 2-503: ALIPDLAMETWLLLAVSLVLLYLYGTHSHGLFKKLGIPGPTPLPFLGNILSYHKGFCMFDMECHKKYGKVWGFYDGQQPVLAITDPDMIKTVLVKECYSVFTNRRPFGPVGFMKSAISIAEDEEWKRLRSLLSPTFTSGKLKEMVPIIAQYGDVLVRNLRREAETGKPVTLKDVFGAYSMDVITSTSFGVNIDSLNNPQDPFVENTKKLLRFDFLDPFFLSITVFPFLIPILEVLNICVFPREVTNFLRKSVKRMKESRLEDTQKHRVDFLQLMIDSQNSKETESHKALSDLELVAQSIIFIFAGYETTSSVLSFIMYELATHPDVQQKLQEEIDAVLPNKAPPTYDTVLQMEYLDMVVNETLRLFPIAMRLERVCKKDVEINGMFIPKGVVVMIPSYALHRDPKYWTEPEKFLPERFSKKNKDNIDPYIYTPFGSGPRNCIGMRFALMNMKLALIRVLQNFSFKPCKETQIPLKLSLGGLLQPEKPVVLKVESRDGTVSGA
# [1] = In vivo pharmacokinetic study of DCCTX and Gom A in rats; conditions: rat
# Experimental: Rats were randomly divided into five groups (groups 1−5, n = 6), respectively. To determine the short- and long-term effect of single-dose Gom A pretreatment on CYP3A metabolism of CTX, Gom A and CTX were administered to rats with different time intervals in groups 2−5. In brief, rats in group 1 (CTX alone group) were i.g. administered with saline (10 mL/kg, vehicle control), and rats in groups 2−5 were given Gom A (i.g.) at the dose of 20.8 mg/kg (50 μmol/kg). Rats in group 1 were intravenously (i.v.) administered with CTX (300 mg/kg) 0.5 h after saline administration. In groups 2–5, rats were given CTX (i.v.) 0.5, 6, 24 and 72 h after Gom A pretreatment, respectively. Mesna was injected (420 mg/kg, i.v.) 1 hour after CTX administration in all groups to prevent bladder injury in accordance with clinical practice.
# Blood samples were collected from the postocular vein at 0.083, 0.25, 0.5, 1, 2, 3, 4, 6, 8, 12 and 24 h after CTX injection. Samples were transferred to heparin tubes and centrifuged at 5000 rpm for 15 min. Plasma was obtained and stored at −20 °C until required for further analysis.
# UHPLC-MS/MS method (I): 6OH-Tes concentrations were analyzed according to the previous reports with slight modifications (Supplementary Figure S3). The terminated sample were centrifuged at 14,000 rpm for 10 min, 10 μL of each supernatant was injected into the UHPLC-MS/MS system for analysis. In general, an Agilent Elipse Plus 2.1 × 50 mm column packed with 1.8 µm C18 was applied. The column temperature was set as 30 °C at a flow rate of 0.3 mL/min. The mobile phase was consisted of aqueous 1% formic acid with the addition of 10 mM ammonium acetate solution (A) and methanol (B) with the gradient elution program set as follow: 5–50–80% B from 0–1–4 min. The ion transitions were m/z 305.0→269.0 for 6OH-Tes and m/z 181.0→111.0 for phenacetin (IS-I). UHPLC-MS method (II): DCCTX concentrations were determined using our previously developed UHPLC-MS/MS method (Supplementary Figure S4). For pharmacokinetic study, plasma samples were diluted 30-fold with plasma from drug-free rats. After vortexing for 2 min, 100 μL of each diluted sample was mixed with 400 μL acetonitrile (containing 6 ng/mL TNZ (IS-II), vortexed, and centrifuged at 14,000 rpm for 10 min. 100 μL supernatant of each sample was mixed with 400 μL aqueous solution containing 10% acetonitrile followed by a rough centrifugation. For HLMs inhibition study, samples were vortexed for 1 min after reaction termination, and the mixture was then centrifuged at 14,000 rpm for 10 min. After centrifugation, the obtained supernatant (5 μL) was injected into the UHPLC-MS/MS system, using methanol/10 mM ammonium acetate aqueous solution as the mobile phase at a flow rate of 0.25 mL/min. The ion transitions were set as m/z 199.2→78 for DCCTX and m/z 248.1→121.1 for TNZ (IS-II). UHPLC-MS/MS method (III): Gom A concentrations were determined using slightly modified LC/MS method which developed by our laboratory. Briefly, a 100 µL plasma sample was transferred to a 10 mL centrifuge tube with addition of 20 µL IS solution and 20 µL water/acetonitrile (90:10, v/v), vortexed for 30 s and then extracted using 3 mL methyl tertiary butyl ether. After extraction, the sample was centrifuged at 5000 rpm for 10 min. The organic layer was quantitatively transferred to a 5 mL glass tube and evaporated to dryness at 35 °C. Then the dried extract was reconstituted in 100 µL solvent (water–acetonitrile, 20:80, v/v) followed by injection of 10 µL aliquot into LC-MS/MS system. Separation was performed on a Zorbax SB-C18 reserved-phase column (100 mm × 2.1 mm i.d., 3.5 µm) with the mobile phase consisting of acetonitrile, methanol and water −0.1% formic acid (72:18:10, v/v/v) at a flow rate of 0.3 mL/min. The ion transitions were set as m/z 399→329 for Gom A and m/z 387.0→145.0 for bifendate (IS-III). […]
# CYP3A [2] = biological target: T1, CYP3A (Homo sapiens, UniProt P08684); test: Reversible CYP3A inhibition, testosterone 6β-hydroxylation in human liver microsomes; assay type: in vitro ADME; conditions: HLMs 0.5 mg/mL, Tes 6β-hydroxylation, Lineweaver-Burk secondary plot; read-out: KI (Ki), reversible competitive inhibition
# Experimental: (§1) A NADPH regenerating system (NADPH-gs, containing 10 mM glucose-6-phosphate, 5 mM magnesium chloride, 1 U/mL glucose-6-phosphate dehydrogenase and 1 mM NADP+) was constructed. The metabolite of Tes, 6OH-Tes, was assayed by UHPLC-MS method (I) for CYP3A activity assessment.
# The CYP3A inhibition by Gom A was preliminarily evaluated. […] After a 5 min warm up period, reactions were initiated with addition of NADPH-gs. Incubations were conducted at 37 °C for 10 min and then terminated by the addition of 200 µL ice-cold acetonitrile containing 18 ng/mL phenacetin (IS-I). To determine the Ki value, Gom A (0.38, 0.75, 1.5, 3 µM) was added to the reaction mixture containing different concentrations of Tes (12.5, 18.75, 25, 37.5 and 50 µM) in the incubation systems. Incubations were processed and terminated as described earlier.
# (§2) Pharmacokinetic profiles of CTX and DCCTX were estimated by one-compartmental model using the DAS 2.0 software ([…], Medical College of Wannan, Anhui, China). Data were expressed as mean ± SD. […] IC50 values of Gom A were determined by nonlinear regression analysis using GraphPad Prism 5.01 software (GraphPad Software Inc., San Diego, CA, USA). The mode of inhibition was verified by Lineweaver-Burk plots of the enzyme kinetic data, and the KI value was determined by linear regression analysis with GraphPad Prism 5.01 (GraphPad Software Inc.). […]
# CYP3A [3] = biological target: T1, CYP3A; test: IC50 shift assay (time- and NADPH-dependent inhibition) in HLMs; assay type: in vitro ADME; conditions: 25 µM Tes
# Experimental: as §1
# To identify time-dependent inhibition (TDI), the IC50 values of Gom A were determined using HLMs with and without a 30 minute preincubation step. In a final volume of 100 µL, Gom A at different concentrations (0, 0.08, 0.31, 0.63, 2.5, 10 and 40 µM) was preincubated with 10 × HLMs (5 mg/mL) at 37 °C with NADPH-gs in PBS (0.1 M). After 30 min, the incubation mixture was diluted 10 folds using PBS (0.1 M). Then 100 µL of the diluted mixture was added into a secondary incubation containing NADPH-gs and 25 µM Tes. The final volume was 200 µL. […]
# as §2
# CYP3A [4] = biological target: T1, CYP3A; test: KI and kinact assay (CYP3A inactivation) in HLMs; assay type: in vitro ADME; parameters: tissue Meilun Biotechnology Co., Ltd. (Dalian, China) lot No. M0202A; host or cells: pooled (mixed) male human liver microsomes; conditions: preincubation 0-30 min with NADPH-gs, 100 µM Tes, read-out: KI (time-dependent inhibition)
# Experimental: The following steps were similar as described in the IC50 shift assays. The concentration of Tes was set as 100 µM (well beyond Km) to avoid reversible inhibition. All the incubations were performed in triplicate.
# Pharmacokinetic profiles of CTX and DCCTX were estimated by one-compartmental model using the DAS 2.0 software ([…], Medical College of Wannan, Anhui, China). Data were expressed as mean ± SD. Comparisons between two groups were performed using one-way ANOVA followed by LSD test in the condition of variance homogeneity or Dunnett T3 test in the case of variance heterogeneity. The differences were considered to be statistically significant at * p < 0.05 and ** p < 0.01. IC50 values of Gom A were determined by nonlinear regression analysis using GraphPad Prism 5.01 software (GraphPad Software Inc., San Diego, CA, USA). The mode of inhibition was verified by Lineweaver-Burk plots of the enzyme kinetic data, and the KI value was determined by linear regression analysis with GraphPad Prism 5.01 (GraphPad Software Inc.). […]
# [5] = Group 4: Gom A 20.8 mg/kg i.g. 24 h before CTX
# [6] = Group 5: Gom A 20.8 mg/kg i.g. 72 h before CTX
substance,measurement,setting,value
Gomisin A [Gom A],observed maximal blood concentration,"[1]; Group 2, Gom A 20.8 mg/kg (50 µmol/kg) i.g.",approximately 16 µM
same,"AUC0–8h of DCCTX, % of group 1 (CTX alone group)",[1]; Group 3: Gom A 20.8 mg/kg i.g. 6 h before CTX,36%
same,"AUC0–8h of DCCTX, fold increase vs CTX alone",[1]; [5],2.0 fold
same,"Cmax of DCCTX, fold increase vs CTX alone",[1]; [5],1.9 fold
same,"AUC0–8h of DCCTX, fold increase vs CTX alone",[1]; [6],2.4 fold
same,"Cmax of DCCTX, fold increase vs CTX alone",[1]; [6],2.3 fold
same,Ki,CYP3A [2],1010 nM
same,IC50,CYP3A [3]; preincubated with NADPH and HLMs for 30 min,420 nM
same,IC50,CYP3A [3]; without preincubation,760 nM
same,Ki,CYP3A [4],350 nM
